The source of these data is publication PMC6271975, “Structure-Activity Relationship Study of Sesquiterpene Lactones and Their Semi-Synthetic Amino Derivatives as Potential Antitrypanosomal Products” (Molecules, 2014).

SMILES strings stand for the structures. Structures can show the parent of a compound that is named as a salt.

This experiment concerns T. b. rhodesiense STIB 900 bloodstream forms. The experiment is described as follows: In vitro antitrypanosomal Alamar Blue assay. The format is cell-based, Trypanosoma brucei rhodesiense. On the procedure:
Evaluation of in vitro antiprotozoal activity against T. b. rhodesiense was done using the Alamar Blue assay to determine IC50s as previously described. Serial threefold dilution were prepared in 96-well micro titre plates, and 4000 T. b. rhodesiense STIB 900 bloodstream forms in 50 μL were added to each well except for the negative controls. Melarsoprol (Arsobal®, purity > 95%, Sanofi-Aventis, Meyrin, Switzerland) was used as reference drugs. […] The IC50 values were calculated from the sigmoidal growth inhibition curves using Softmax Pro software (Molecular Devices).

For `C=C(CO)C(=O)OC1CC(=C)C2CC(O)C(=C)C2C2OC(=O)C(CN(C)C)C12` (stereo not shown) [Compound 19, Cynaropicrin dimethylamine adduct hydrochloride], the “SI (Selectivity Index)” value stood at 10.4.
